## scFv variants of Ab-14 (light chain) against a SARS-CoV-2 spike peptide

Antigen: PDVDLGDISGINAS, a 14-residue peptide of the SARS-CoV-2 spike HR2 region.

The variants keep the heavy chain, the linker and the frameworks of Ab-14 (scFv order VH, the linker GGGGSGGGGSGGGGS, VL).
VH: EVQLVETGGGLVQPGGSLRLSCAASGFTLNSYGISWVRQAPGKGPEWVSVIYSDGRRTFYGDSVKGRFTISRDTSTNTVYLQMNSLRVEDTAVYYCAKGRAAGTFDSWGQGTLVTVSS
VL: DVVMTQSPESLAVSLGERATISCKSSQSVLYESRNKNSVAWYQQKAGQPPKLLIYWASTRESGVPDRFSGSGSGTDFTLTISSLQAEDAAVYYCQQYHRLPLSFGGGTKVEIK

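The parent was found by panning a naive human phage display library on the peptide. Designed CDR sequences, proposed from the first random library and measured here. Their group label is 14L_GP_Gen (GP: Gaussian process model; Gen: genetic algorithm; a sequence that several methods proposed may carry one label only). The scFvs were displayed on barcoded MATa yeast, the peptide on MATalpha yeast. Pairs that bind mate more often; barcode pairs of the diploids are counted by sequencing. A regression on co-assayed BCL2-family reference pairs converts the normalised counts of each replicate to an apparent Kd. Each pool was mated in six replicate cultures.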

Each variant is given by its three light chain CDRs, as the data file delimits them; those of the parent are KSSQSVLYESRNKNSVA, WASTRES, QQYHRLPLS. Affinities are written as log10 Kd with Kd in nM; a lower number is a better binder. A mean of the replicates is given; it leaves out those without a signal. The authors averaged sequences with at least three values out of six and counted those with two or fewer as poor binders. Of ten entries with the parent sequence, four were seen in most replicates (averages 0.34 to 2.37), three in one and three in none, so single entries are noisy. The range of this assay differs from that of the first round, and the authors advise against merging the two. Background: pairings of all light chain designs with three empty control strains gave a value in 4% of cases (median 2.64, 5th percentile 1.59). Values in that range, when seen in few replicates, are hard to tell from nonspecific mating. Also given: how often the same scFv was detected with the empty control strains, with their mean in brackets.

| CDR-L1 | CDR-L2 | CDR-L3 | replicates, log10 nM | mean, log10 nM | empty controls |
|---|---|---|---|---|---|
| KLSQSWLYESRNKNNVA | DASTRES | QQYHRLPLS | -0.18 / -0.24 / -0.32 / -0.50 / -0.17 / -0.20 | -0.27 | 0 of 18 |
| KVSQSVLYESRNKNSVA | EASTRMS | QQYHRLPLS | 0.03 / 0.02 / -0.39 / 0.01 / 0.09 / -0.27 | -0.09 | 0 of 18 |
| KMPQSHLYESRNKNSVA | NASTRES | QQYHRLPLS | -0.06 / 0.02 / -0.20 / 0.00 / -0.12 / 0.01 | -0.06 | 3 of 18 (4.23) |
| KLSQSVLYESRWKNSVA | GASTRES | QQYHRLPLS | 0.19 / 0.04 / -0.07 / 0.01 / 0.04 / 0.16 | 0.06 | 6 of 18 (2.94) |
| KLSQSQLYGSRNKNSVA | NASTRES | QQYHRLPLS | 1.13 / 1.02 / 0.63 / 0.33 / 0.90 / 0.83 | 0.81 | 0 of 18 |
| KLMQSVLYESRNKNSVA | NASTRLS | QQYHRLPLS | -0.27 / -0.36 / -0.39 / -0.51 / -0.39 / -0.38 | -0.38 | 1 of 18 (2.26) |
| KLYQSGLYESRNKNSVA | NASTRES | QQYHRLPLS | 0.05 / -0.01 / 0.05 / 0.12 / 0.05 / 0.13 | 0.06 | 3 of 18 (2.62) |
| KLSQSVPYEERNKNSVA | NASQRES | QQYHRLPLS | 0.02 / -0.09 / -0.07 / -0.30 / -0.12 / 0.12 | -0.08 | 0 of 18 |
| KLMQSVLYESRNKNSVA | EASTRES | QQYHRLPLS | 0.01 / -0.20 / -0.35 / -0.18 / -0.45 / -0.02 | -0.20 | 1 of 18 (2.61) |
| KLSQSVLYESRNKNSVA | NASQRES | QQYHRLPLM | 0.01 / -0.15 / -0.31 / -0.45 / -0.36 / -0.18 | -0.24 | 1 of 18 (2.52) |
| KLSQSELYESRMKNSVA | NASTREQ | QQYHRLPLS | -0.03 / 0.30 / 0.66 / -0.15 / 0.11 / 0.62 | 0.25 | 0 of 18 |
| KVQQSWPYESRNKNSVA | NASTRES | QQYHRLPLS | 0.55 / 0.63 / 0.38 / 0.65 / 0.24 / 0.28 | 0.46 | 0 of 18 |
| KQSQSVLMESRNKNSVA | DASTRES | QQYHRLPLS | -0.11 / 0.01 / -0.16 / -0.37 / -0.09 / 0.13 | -0.10 | 1 of 18 (2.12) |
| KLSQSVLYESRNTNSVA | NASQRES | QQYHRLPLS | 0.12 / -0.10 / -0.22 / -0.19 / -0.23 / 0.06 | -0.10 | 0 of 18 |
| KFSQSWLYESRNKNSVA | NASQRLS | QQYHRLPLS | -0.19 / -0.25 / -0.41 / -0.24 / -0.31 / -0.14 | -0.26 | 1 of 18 (2.69) |
| KLSQSKLYESRNKNNVA | EASQRES | QQYHRLPLS | -0.68 / -0.74 / -0.89 / -0.53 / -0.76 / -0.60 | -0.70 | 0 of 18 |
| KVSQSGLYESRNKNSVA | QASTRES | QQYHRLPLS | -0.05 / -0.15 / -0.50 / -0.38 / -0.38 / -0.32 | -0.30 | 1 of 18 (1.74) |
| KLSQSFLYESRNKNSVA | QASTRES | QQYHRLPLS | -0.05 / -0.14 / -0.14 / -0.44 / -0.30 / -0.13 | -0.20 | 0 of 18 |
| KYSQSELYESRNKNSVA | NASQRES | QQYHRLPLS | 0.25 / 0.12 / -0.25 / -0.10 / 0.24 / 0.12 | 0.06 | 1 of 18 (2.65) |
| KLSQSMEYESRNKNSVA | NASQRLS | QQYHRLPLS | 0.33 / 0.20 / 0.01 / 0.04 / 0.25 / 0.37 | 0.20 | 0 of 18 |
| KLQQSVLYESRNKNSVA | QASTRLS | QQYHRLPLS | 0.35 / 0.40 / 0.03 / 0.10 / 0.38 / 0.35 | 0.27 | 0 of 18 |
| KFSQSVLYESRNFNSVA | NASTRES | QQYHRLPLS | -0.13 / 0.00 / -0.15 / -0.47 / -0.22 / -0.13 | -0.18 | 1 of 18 (2.38) |
| KFSQSVLYEDRVKNSVA | NASQRES | QQYHRLPLS | 0.07 / 0.18 / -0.02 / -0.10 / 0.09 / 0.22 | 0.08 | 4 of 18 (2.73) |
| KLQQSELYESRNKNSVA | GASTRES | QQYHRLPLS | -0.02 / -0.13 / -0.35 / 0.05 / -0.11 / 0.31 | -0.04 | 1 of 18 (2.29) |
| KVPQSQLYESRNKNSVA | NASQRES | QQYHRLPLS | 0.41 / 0.36 / 0.38 / 0.18 / 0.13 / 0.57 | 0.34 | 1 of 18 (3.52) |
| KLPQSELYESRNKNSVA | NASTREE | QQYHRLPLS | 0.02 / 0.10 / 0.04 / 1.21 / 0.68 / 0.37 | 0.40 | 0 of 18 |
| KLSMSWLYESRNKNNVA | NASTRES | QQYHRLPLS | -0.37 / -0.48 / -0.61 / -0.64 / -0.61 / -0.58 | -0.55 | 1 of 18 (2.38) |
| KLPQSFLYESRNKNSVA | AASTRES | QQYHRLPLS | -0.06 / -0.31 / -0.08 / -0.31 / -0.29 / -0.15 | -0.20 | 2 of 18 (3.59) |
| KLPQSVLYESRNKNSVA | NASERES | QQYHRLPLS | -0.39 / -0.47 / -0.36 / -0.61 / -0.56 / -0.33 | -0.45 | 0 of 18 |
| KLSQSWLYESRNKNSVA | NASTREE | QQYHRLPLS | -0.04 / -0.19 / -0.25 / -0.38 / -0.33 / 0.03 | -0.19 | 2 of 18 (3.05) |
| KLEQSQLYESRNKNSVA | NASTRMS | QQYHRLPLS | -0.07 / -0.17 / -0.36 / 0.04 / -0.08 / -0.03 | -0.11 | 0 of 18 |
| KVSQSVLYESRNKNSVA | NASTRES | QQYHRLPLE | -0.28 / -0.32 / -0.06 / -0.74 / -0.29 / -0.48 | -0.36 | 1 of 18 (1.41) |
| KFSQSHLYESRNKNSVA | NASTRES | QQYHRLPLS | 0.23 / 0.99 / -0.30 / 0.00 / 0.19 / -0.15 | 0.16 | 0 of 18 |

The measurements come from Li et al. 2023 (doi:10.1038/s41467-023-39022-2) through the FLAb antibody collection.